Legend:
[1] = target: T1, heparin-induced aggregated tau (aTau), full-length 2N4R human Tau (Homo sapiens, UniProt P10636); assay: In vitro fluorometric aTau binding assay; details: 0.04 μM aTau, serially diluted compound 10 to 0.00017 μM, 37° C. 1 hour, fluorescence
Protocol: (§1) (A) Expression and purification of human Tau: 1 mM IPTG (Sangon Biotech, Cat. No A100487) was used to induce production of tau by bacteria (BL21, Invitrogen, Cat. No C600003) transformed with a full-length 2N4R tau expression plasmid. After 3 hours, cell pellet was resuspended in lysis buffer (100 mM PIPES, 1 mM EGTA, 1 mM MgSO4, pH 6.8) and lysed by sonication followed by centrifugation (15,000 rpm, 15 min, 4° C.). The supernatant was then placed in a boiling water bath for 20 min, followed by centrifugation (15,000 rpm, 15 min, 4° C.). […] Protein concentration was determined by UV absorption. […]
(D) In vitro fluorometric aTau binding assays: 2 μM aTau was diluted to 0.04 μM with 30 mM Tris-HCl (pH 6.8), and then incubated with serially diluted compound (three-fold serial dilutions, from 10 to 0.00017 μM) in a 96-well plate (Corning, Cat. No 3573) at 37° C. for 1 hour. Fluorescence intensity (excitation/emission=370/500 nm) of APN-0729 was read by microplate spectrometer (EnSpire 2300, PerkinElmer). Compound Kd values were calculated using the following equation: Y=Bmax* X (Kd+X), where X is the concentration of compound; Y is the fluorescence signal of (compound+aTau)−(compound+DMSO); and Bmax is the maximum signal.

The chains behind the UniProt entries cited, without tags or fusion partners. Residues count along the entry.
UniProt P10636, 1-441 isoform 8: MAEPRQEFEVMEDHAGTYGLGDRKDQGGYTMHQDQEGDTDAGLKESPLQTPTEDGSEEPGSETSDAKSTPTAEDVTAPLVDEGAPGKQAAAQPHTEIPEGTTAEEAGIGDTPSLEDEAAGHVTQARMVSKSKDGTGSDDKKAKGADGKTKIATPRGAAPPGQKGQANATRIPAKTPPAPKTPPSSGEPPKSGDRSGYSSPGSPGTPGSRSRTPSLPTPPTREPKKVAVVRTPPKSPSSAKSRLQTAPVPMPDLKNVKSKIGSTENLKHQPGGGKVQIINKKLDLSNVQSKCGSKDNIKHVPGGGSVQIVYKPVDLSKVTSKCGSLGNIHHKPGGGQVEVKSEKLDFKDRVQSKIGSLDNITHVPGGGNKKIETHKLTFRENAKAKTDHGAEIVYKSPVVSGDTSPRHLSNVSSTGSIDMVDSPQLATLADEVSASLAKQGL

[2] = target: T1, heparin-induced aggregated tau (aTau), full-length 2N4R human Tau; assay: PBB5 competition assay; details: 0.12 μM aTau
Protocol: as §1
(E) PBBS competition assay: 2 μM of aTau was diluted to 0.12 μM by […] (pH 6.8) and then incubated with 0.1 μM 2-(4-(2-(methylamino)pyridine-5-yl)-1,3-butadiene-1-yl)benzothiazole-6-ol (PBB5) and serially diluted compound (three-fold serial dilution, from 10 to 0.00017 μM) in a 96-well plate (Corning, Cat. No 3573) at 37° C. for 1 hour. Fluorescence intensity (excitation/emission=530/690 nm) of PBB5 was read by microplate spectrometer (EnSpire 2300, PerkinElmer). Percentage of competition was calculated using the following equation: (Max−well of compound alone)/(Max−Min)*100%, where Max=(Tau+PBB5) signals−(buffer+PBB5) signals; and Min=(buffer+PBB5) signals−(buffer+PBB5) signals. […]

CN(C)c1ccc2nc(-c3ccc(-c4ccc(NCCOCCN5C(=O)CCC(N6Cc7cc(O)ccc7C6=O)C5=O)nc4)cc3)sc2c1 (stereo not drawn)
Kd [1]: 120 nM | Competition Assay with PBB5: Bmax (%) ([2]; 0.1 μM PBB5, compound up to 10 μM): =100% | IC50 ([2]; read-out: Competition Assay with PBB5: PBB5, 0.1 μM PBB5, 37° C. 1 hour, PBB5 fluorescence 530/690 nm): 550 nM

— patent publication US20220354835A1, “COMPOUNDS FOR DEGRADING TAU PROTEIN AGGREGATES AND USES THEREOF” (Aprinoia Therapeutics Limited, priority 2019, published 2022)
